Assay [1] deals with recombinant rat α2β3γ2 receptors (Rattus norvegicus, UniProt P18508+P23576). Kind of assay: Two-electrode voltage clamp of GABA-induced chloride currents in Xenopus oocytes. The conditions noted are these: mean ± SEM. The assay is classed as cell-based. (Two-electrode voltage clamp holds a large cell at a set potential and records current.)
Assay [2] deals with recombinant rat α2β3γ2F77I receptors (Rattus norvegicus, UniProt P18508+P23576, F115I). The description is as above. The assay is classed as cell-based.

Protein sequences, listed by entry. Tags and fused reporters are not part of them. Lines headed by an entry give the natural chain unless they say otherwise; changes in a name come on top. Residues count along the entry.
UniProt P18508, 39-466: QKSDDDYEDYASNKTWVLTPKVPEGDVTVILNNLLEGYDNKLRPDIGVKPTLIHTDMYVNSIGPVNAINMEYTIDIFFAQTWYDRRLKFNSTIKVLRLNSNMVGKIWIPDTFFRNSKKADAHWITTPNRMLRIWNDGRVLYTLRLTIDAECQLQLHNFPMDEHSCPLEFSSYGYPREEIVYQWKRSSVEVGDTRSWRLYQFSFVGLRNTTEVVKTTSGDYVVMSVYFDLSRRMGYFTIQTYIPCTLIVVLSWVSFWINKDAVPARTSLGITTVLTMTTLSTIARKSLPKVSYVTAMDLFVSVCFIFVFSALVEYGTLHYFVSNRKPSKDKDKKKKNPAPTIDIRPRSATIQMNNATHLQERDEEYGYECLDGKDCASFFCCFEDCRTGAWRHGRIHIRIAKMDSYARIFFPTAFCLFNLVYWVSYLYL
UniProt P18508, 39-466 F115I: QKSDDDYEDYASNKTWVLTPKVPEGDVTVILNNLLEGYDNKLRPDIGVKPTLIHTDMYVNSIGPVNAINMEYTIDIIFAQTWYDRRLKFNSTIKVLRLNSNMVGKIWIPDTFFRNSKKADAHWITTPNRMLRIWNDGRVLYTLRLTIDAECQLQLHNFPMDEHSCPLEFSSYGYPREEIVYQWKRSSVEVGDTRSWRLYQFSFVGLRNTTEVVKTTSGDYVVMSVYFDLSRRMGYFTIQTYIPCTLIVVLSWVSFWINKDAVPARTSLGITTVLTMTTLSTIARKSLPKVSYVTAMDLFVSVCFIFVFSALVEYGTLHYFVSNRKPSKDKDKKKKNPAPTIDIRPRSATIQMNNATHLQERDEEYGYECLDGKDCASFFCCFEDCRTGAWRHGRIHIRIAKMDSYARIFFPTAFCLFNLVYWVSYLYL
UniProt P23576, 29-451: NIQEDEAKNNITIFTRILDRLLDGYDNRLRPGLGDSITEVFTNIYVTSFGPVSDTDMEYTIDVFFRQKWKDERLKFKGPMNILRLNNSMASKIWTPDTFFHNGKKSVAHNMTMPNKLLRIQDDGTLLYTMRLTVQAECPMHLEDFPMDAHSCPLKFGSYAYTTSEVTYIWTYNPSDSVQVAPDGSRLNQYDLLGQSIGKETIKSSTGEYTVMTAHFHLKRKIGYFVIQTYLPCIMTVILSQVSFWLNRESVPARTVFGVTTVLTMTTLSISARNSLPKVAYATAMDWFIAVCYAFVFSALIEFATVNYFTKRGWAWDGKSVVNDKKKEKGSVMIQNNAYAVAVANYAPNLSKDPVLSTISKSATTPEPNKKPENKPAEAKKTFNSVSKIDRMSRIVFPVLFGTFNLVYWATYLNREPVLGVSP

This note sets out measurements from publication PMC7615656 (European journal of pharmacology, 2010).

Regarding `NCCCC(=O)O` [GABA], the “maximum GABA-induced current” value in assay [1] is 4 ± 0.4 µA; in assay [2] (mean ± SEM), 7 ± 0.9 µA. Further, in assay [2], the “Hill coefficient of GABA dose–response curve” value is reported as 0.8.
